Hits are enriched below; roughly 2.8% of the tested compounds scored in any of these assays.
esBAF inh: SWI/SNF esBAF complex inhibition; mouse ES cells, Bmi1-luciferase knock-in reporter, 24 h; 100% = twice the neutral-well signal; AID 602393; reporter increase, % at 12.5 µM; 350,000 compounds, 2% hits; in the data active means activation above about 40%; inconclusive means no clear call, values can overlap the other calls;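 further: a rise in the Bmi1 reporter signal indicates esBAF inhibition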
Wnt bcat act: activators of Wnt/beta-catenin signaling | Wnt/beta-catenin reporter cell assay, activator, plate reader | 300,000 compounds, 1.2% hits | activation, % at 9.35 µM; in the data active means activation above about 30%, passing the limit was not always enough; inconclusive means no clear call, values can overlap the other calls
miR122 inh: blocks miR-122 activity in Huh7 sensor cells; activation (reporter increase), % at 12.5 µM; 340,000 compounds, 0.3% hits; Huh7 miR-122 Renilla luciferase sensor, 48 h; neutral wells = 0, positive control = 100; AID 602342;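 active means mean replicate activation score at least 90 and every replicate individually at or above 90; inconclusive means only one of the two criteria met; inactive means neither criterion met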;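 further: higher luciferase means less miR-122 activity so hits act as miR-122 inhibitors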
PglD DTNB: inhibitors of Campylobacter jejuni PglD acetyltransferase; purified PglD enzyme, DTNB colorimetric CoA detection; inhibition, % at 12.5 µM; 360,000 compounds, 0.098% hits; AID 602405; in the data active means inhibition above about 16%, passing the limit was not always enough; inconclusive means no clear call, values can overlap the other calls
Yeast UUG start: modulators of yeast start codon fidelity, primary screen, whole organism, S. cerevisiae, single point, plate reader | AID 602363, 2012 | actives 0.13% (n = 350,000) | activity score, % at 18.7 µM | S. cerevisiae UUG-firefly luciferase reporter, luminescence/redox ratio;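 active means replicate mean at a twofold rise or more, about +100% in these data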;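 further: firefly luciferase made from a UUG start codon reports start codon fidelity; reporter light over untreated wells divided by growth signal over untreated wells; some hits fall short of that in this replicate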
MITF act: increases MITF-driven TRPM1 promoter luciferase signal. SK-MEL-5 TRPM1-promoter luciferase, 24 h; % of positive control, neutral wells = 0. activation, % at 12.5 µM. 300,000 compounds, 0.75% hits;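 active means mean activation of at least 80% with every replicate also reaching 80%; inconclusive means mean reaches 80% but some replicate falls short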
A number is an active result; – = inactive; ? = inconclusive; · = no result given.

SMILES | esBAF inh | Wnt bcat act | miR122 inh | PglD DTNB | Yeast UUG start | MITF act
CC(=O)c1ccc(OCc2cc(C(=O)NCC3CCCCO3)no2)cc1 (stereo unspecified) | · | – | · | · | · | –
COc1ccccc1OCc1cc(C(=O)N(C)CCC2CCCCO2)no1 (stereo unspecified) | 76 | – | – | – | – | –
COc1cc(C(C)=O)ccc1OCc1cc(C(=O)N(C)CCC2CCCCO2)no1 (stereo unspecified) | 51 | ? | – | – | – | ?
CC(=O)OCCCN1c2ccccc2Nc2nnc(-c3ccccc3)cc21 | ? | · | – | – | – | 98
CCCNC(=O)N(C)C[C@@H]1Oc2cc(-c3ccccc3F)ccc2S(=O)(=O)N([C@@H](C)CO)C[C@@H]1C | – | · | · | – | – | ·
C[C@@H]1CN([C@H](C)CO)C(=O)c2cc(NS(=O)(=O)c3cn(C)cn3)ccc2O[C@@H]1CN(C)C(=O)Nc1cccc2ccccc12 | – | · | – | – | – | ·
Cc1ccc(C(=O)CSc2nc(C(C)C)nc3ccccc23)cc1 | – | 36 | · | – | – | –
C[C@@H]1CN([C@H](C)CO)C(=O)Cc2cc(NC(=O)NC3CCCCC3)ccc2O[C@H]1CN(C)Cc1ccc(-c2ccccc2)cc1 | – | · | – | – | – | ·
CCCCN1CC(O)=C(c2nc3ccccc3s2)C1=N | 58 | – | – | – | – | –
COC(=O)c1ccccc1NC(=O)COc1ccccc1[N+](=O)[O-] | · | – | · | · | · | –
CCOc1ccc(NC(=O)c2ccc(Br)o2)c([N+](=O)[O-])c1 | 50 | – | – | – | – | –
CCOc1ccc(NC(=O)COc2ccccc2)c([N+](=O)[O-])c1 | 62 | – | – | · | · | 130
CCOc1ccc(NN=C(C(=O)OC)C(=O)OC)c([N+](=O)[O-])c1 | · | – | – | – | – | ·
Cc1ccc(OCC(=O)Nc2ccccc2[N+](=O)[O-])c(Br)c1 | · | 64 | · | · | · | –
CCOc1ccc(NC(=O)Cc2ccccc2)c([N+](=O)[O-])c1 | · | · | – | – | – | –
C[C@@H]1CN([C@H](C)CO)C(=O)Cc2cc(NC(=O)Nc3ccccc3)ccc2O[C@@H]1CN(C)C(=O)Nc1ccc(C(F)(F)F)cc1 | – | · | – | – | – | ·
C[C@@H]1CCCCO[C@H](CN(C)S(=O)(=O)c2ccccc2)[C@H](C)CN([C@@H](C)CO)C(=O)c2cc(NS(=O)(=O)c3ccccc3)ccc2O1 | – | · | – | – | – | ·
Cc1ccc(C(=O)Nc2ccc3c(c2)ncn3C)cc1 | – | 38 | – | – | – | –
Cc1ccc(CNc2ccc3c(c2)ncn3C)cc1 | 70 | 41 | – | – | – | –
CCCn1cnc2cc(NCc3cccc(OC)c3O)ccc21 | 56 | · | – | – | – | –
CCn1cnc2cc(NCc3ccc(Cl)cc3)ccc21 | 55 | 34 | · | – | – | –
CO[C@H]1CN(C)C(=O)c2cc(NC(=O)C3CCC3)ccc2OC[C@H](C)NC[C@@H]1C | – | · | – | – | – | ·
C[C@H]1CCCCO[C@@H](CN(C)Cc2ccc3c(c2)OCO3)[C@@H](C)CN([C@@H](C)CO)C(=O)c2cc(NC(=O)Nc3ccc4c(c3)OCO4)ccc2O1 | – | · | – | – | – | ·
CCC(=O)Nc1ccc2c(c1)ncn2-c1ccc(C)cc1 | 49 | – | – | – | – | –
O=[N+]([O-])c1cccc(-c2ncc3ccccn23)c1 | · | – | · | · | · | –
SMILES | esBAF inh | Wnt bcat act | miR122 inh | PglD DTNB | Yeast UUG start | MITF act
Nc1c(-c2cccc([N+](=O)[O-])c2)nc2ccccn12 | 59 | – | – | · | · | –
C[C@@H]1CN([C@@H](C)CO)C(=O)c2cc(NC(=O)CCC(F)(F)F)ccc2O[C@@H]1CN(C)Cc1ccc(Cl)c(Cl)c1 | – | · | – | – | · | ·
COc1ccc2c(=O)c(C(=O)NCCc3ccccc3)c[nH]c2c1 | 55 | – | · | – | – | –
COc1ccc2cc(C(=O)NCc3ccccc3)[nH]c2c1 | – | – | – | – | – | –
COc1ccc2[nH]cc(C(=O)NCCc3ccccc3)c(=O)c2c1 | – | – | – | – | – | –
COc1ccc2cc(C(=O)NCCc3ccccc3)[nH]c2c1 | 43 | – | – | – | – | ?
Cc1ccsc1/C=C1\CCC(C2CCCC2)C1=O (stereo unspecified) | – | 47 | – | · | · | –
COc1cc(OC)c(OC)cc1/C=C1\CCC(C2CCCC2)C1=O (stereo unspecified) | – | – | – | – | – | –
Cc1ccc(/C=C2\CCC(C3CCCC3)C2=O)cc1 (stereo unspecified) | · | – | – | – | – | –
COc1ccc(/C=C2\CCC(C3CCCC3)C2=O)cc1OC (stereo unspecified) | – | 33 | · | – | – | –
COc1ccc(/C=C2\CCC(C3CCCC3)C2=O)cc1 (stereo unspecified) | 56 | – | · | – | – | 98
NC(=O)c1ccc(OCc2ccccc2)nc1 | 60 | – | – | – | – | 88
O=C(N/N=C/c1ccc(OCc2ccccc2)cc1)c1ccncc1 | – | – | – | – | – | –
O=C(N/N=C/c1ccc(OCc2ccccc2)cc1)c1cccs1 | 48 | · | – | – | – | –
COc1ccc(NC(=O)c2cccs2)cc1 | · | · | – | – | – | –
Oc1ccc(N=Cc2ccc(OCc3ccccc3)cc2)cc1 | 48 | – | – | – | – | –
CNC(=S)Nc1ccc(OCc2ccccc2)cc1 | 41 | – | – | – | – | –
CCOc1ccc(NC(=S)Nc2ccc(OCc3ccccc3)cc2)cc1 | · | – | – | – | – | –
O=C(Nc1ccc(OCc2ccccc2)cc1)c1cccs1 | 68 | – | – | – | – | ·
C[C@@H]1CCCCO[C@H](CN(C)Cc2ccc(C(=O)O)cc2)[C@H](C)CN([C@H](C)CO)C(=O)c2cc(NS(=O)(=O)c3ccc(Cl)cc3)ccc2O1 | – | · | – | – | – | ·
COc1ccc(C(=O)N2C[C@@H]3[C@H](c4ccccc42)[C@H](CO)N3Cc2ccccc2)cc1 | – | · | – | – | – | ·
O=C(C[n+]1ccc(C(=O)N/N=C/c2ccc(OCc3ccccc3)cc2)cc1)c1ccccc1 | – | – | – | – | – | 134
CC(C)(C)NCC(=O)N/N=C/c1ccc(OCc2ccccc2)cc1 | · | – | · | · | · | 87
O=C(C[n+]1ccc(C(=O)N/N=C/c2ccc(O)cc2)cc1)c1ccccc1 | – | – | – | – | – | –
Nc1nnc(COc2ccc(Br)cc2Br)s1 | 69 | – | · | – | – | –
SMILES | esBAF inh | Wnt bcat act | miR122 inh | PglD DTNB | Yeast UUG start | MITF act
Cc1ccc(S(=O)(=O)N(C)C[C@@H]2OCCCC[C@H](C)Oc3ccc(NC(=O)CCC(F)(F)F)cc3C(=O)N([C@H](C)CO)C[C@@H]2C)cc1 | – | · | – | – | – | ·
N#CCn1cnc2sc(-c3ccccc3)cc2c1=O | · | – | · | · | · | –
Cc1ccc(C)n1-n1cnc2sc(-c3ccccc3)cc2c1=O | – | · | · | – | – | –
O=c1[nH]c(-c2ccccc2)nc2sc(-c3ccccc3)cc12 | · | – | · | · | · | –
O=c1c2cc(-c3ccccc3)sc2ncn1-n1cccc1 | 72 | – | – | – | – | 85
CC(=O)Cn1nnc2sc(-c3ccccc3)cc2c1=O | · | – | – | · | · | 89
O=c1[nH]cnc2sc(-c3ccccc3)cc12 | 49 | – | · | – | – | –
